Data published in US20090149496A1, “INHIBITORS OF THE TASK-1 AND TASK-3 ION CHANNEL” (SANOFI-AVENTIS DEUTSCHLAND GMBH, priority 2006, published 2009).
Structures can show the parent of a compound that is named as a salt.

Amino acid sequences for entries named in this document (tags omitted). A change or cut given only in a name is not applied to a line headed by its entry.
UniProt O35111: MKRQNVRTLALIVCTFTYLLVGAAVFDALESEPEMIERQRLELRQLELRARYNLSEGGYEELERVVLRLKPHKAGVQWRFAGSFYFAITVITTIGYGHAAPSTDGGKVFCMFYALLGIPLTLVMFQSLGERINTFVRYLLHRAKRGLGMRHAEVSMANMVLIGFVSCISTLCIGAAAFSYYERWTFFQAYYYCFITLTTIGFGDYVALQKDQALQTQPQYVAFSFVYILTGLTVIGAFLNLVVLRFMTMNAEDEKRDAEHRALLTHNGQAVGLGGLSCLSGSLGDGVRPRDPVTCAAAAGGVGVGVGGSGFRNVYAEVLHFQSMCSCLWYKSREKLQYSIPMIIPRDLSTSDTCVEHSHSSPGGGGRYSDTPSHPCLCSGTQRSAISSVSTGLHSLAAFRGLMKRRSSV

Biological target: T1, TASK1 (mouse) (Mus musculus, UniProt O35111)
T1 construct: expressed in transfected cells; host or cells: Xenopus laevis oocytes injected with in vitro synthesized RNA
Assay: Activity on the TASK-1 channel in Xenopus oocytes (two-microelectrode voltage clamp), mouse channel
Format: cell-based
Method: A) Determination of the Activity on the TASK-1 Channel in Xenopus Oocytes
Mouse or human TASK-1 channels were expressed in Xenopus oocytes. For this purpose, oocytes were first isolated from Xenopus levis and defolliculated. Subsequently, TASK-1-encoding RNA synthesized in vitro was injected into these oocytes. After two days of TASK-1 protein expression, TASK-1 currents were measured on the oocytes with the two-microelectrode voltage clamp technique. In this measurement, the TASK-1 channels were generally activated with voltage jumps lasting 250 ms to 40 mV. The bath was flushed with a solution of the following composition: NaCl 96 mM, KCl 2 mM, CaCl2 1.8 mM, MgCl2 1 mM, HEPES 5 mM (titrated to pH 7.4 with NaOH). These experiments were performed at room temperature. For data acquisition and analysis, the following were used: Geneclamp amplifier (Axon Instruments, Foster City, USA) and MacLab D/A converter and software (ADinstruments, Castle Hill, Australia). The inventive substances were tested by adding them to the bath solution in different concentrations. The effects of the substances were calculated as the percentage inhibition of the TASK-1 control current which was obtained when no substance was added to the solution. The data was subsequently fitted to the Hill equation in order to determine the half-maximum inhibitory concentrations (IC50 values) for the particular substances.

## CC[C@H](NC(=O)c1cc(F)ccc1NS(=O)(=O)c1cccc2cccnc12)c1ccccc1 [Example 3, (S)-5-Fluoro-2-(quinoline-8-sulfonylamino)-N-(1-phenylpropyl)benzamide sodium salt]
  IC50: 820 nM
